Laboratory results: patent publication US20250177555A1 (priority 2022, published 2025)
Counter-ions that a name gives are not always drawn.

Columns and labels:
[1] = test system: CNV-G-GFP11/DmrC-GFP1-10/DmrA-Cre Gectosomes in HeLa-ColorSwitch cells; test: cells; assay type: cell-based; conditions: read-out: IC50, percentage of switched cells
[2] = test system: VSV-G gectosome-mediated Cre delivery; assay type: cell-based

Structure (SMILES)	IC50 [1]	inhibition of VSV-G gectosome-mediated Cre delivery [2]
COc1cc2c3cc1Oc1c(OC)c(OC)cc4c1[C@@H](Cc1ccc(O)c(c1)Oc1ccc(cc1)C[C@@H]3N(C)CC2)N(C)CC4 [Berbamine HCl]	2400 nM	–
C/C1=C/C(=O)O[C@@H]2C[C@@H](CC[C@H](C)/C=C\CC1)O[C@@](O)([C@@H]1CSC(=O)N1)C2 [Latrunculin B]	–	does not inhibit
COc1ccc2c(c1)CC[C@@H]1[C@@H]2CC[C@]2(C)[C@@H](NCCCCCCN3C(=O)C=CC3=O)CC[C@@H]12 [U-73122]	–	inhibits both
